Where two headings read alike, the source gives them in different places.
How the values were obtained:
[1] = tested on: human epidermoid tumors (A431); test: In vivo inhibition of the growth of human epidermoid tumors (A431) in mice; design: species or system human tumor in BALB/c nu/nu female mice
[2] = target: T1, Epidermal Growth Factor Receptor Kinase (His-tagged cytoplasmic domain of EGFR) (Homo sapiens, UniProt P00533); test: Inhibition of Epidermal Growth Factor Receptor Kinase (EGF-R) using recombinant enzyme; assay type: biochemical; details: average of number of tests, RR-SRC peptide
T1 construct: EGFR cDNA encoding amino acids 645-1186 preceded by Met-Ala-(His)6; made in house; host or cells: Sf9 insect cells, baculovirus vHcEGFR52

Sequences of proteins named here, by UniProt entry; tags and fusion partners are left off. Residues count along the entry.
UniProt P00533, 669-1210: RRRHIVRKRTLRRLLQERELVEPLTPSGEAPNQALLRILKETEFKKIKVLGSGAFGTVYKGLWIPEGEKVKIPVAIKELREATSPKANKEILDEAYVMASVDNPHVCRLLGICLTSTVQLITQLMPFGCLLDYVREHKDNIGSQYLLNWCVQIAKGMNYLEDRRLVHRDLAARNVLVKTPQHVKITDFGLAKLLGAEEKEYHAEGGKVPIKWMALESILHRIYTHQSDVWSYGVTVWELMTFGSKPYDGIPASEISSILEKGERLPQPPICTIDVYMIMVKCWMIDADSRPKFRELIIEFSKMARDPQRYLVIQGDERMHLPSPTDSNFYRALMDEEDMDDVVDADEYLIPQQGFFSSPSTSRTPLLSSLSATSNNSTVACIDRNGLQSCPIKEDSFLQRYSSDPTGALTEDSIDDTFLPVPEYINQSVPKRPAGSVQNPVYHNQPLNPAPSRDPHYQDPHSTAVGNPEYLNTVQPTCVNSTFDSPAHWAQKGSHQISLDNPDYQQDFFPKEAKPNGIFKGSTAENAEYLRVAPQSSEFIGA
UniProt P29317, 24-976: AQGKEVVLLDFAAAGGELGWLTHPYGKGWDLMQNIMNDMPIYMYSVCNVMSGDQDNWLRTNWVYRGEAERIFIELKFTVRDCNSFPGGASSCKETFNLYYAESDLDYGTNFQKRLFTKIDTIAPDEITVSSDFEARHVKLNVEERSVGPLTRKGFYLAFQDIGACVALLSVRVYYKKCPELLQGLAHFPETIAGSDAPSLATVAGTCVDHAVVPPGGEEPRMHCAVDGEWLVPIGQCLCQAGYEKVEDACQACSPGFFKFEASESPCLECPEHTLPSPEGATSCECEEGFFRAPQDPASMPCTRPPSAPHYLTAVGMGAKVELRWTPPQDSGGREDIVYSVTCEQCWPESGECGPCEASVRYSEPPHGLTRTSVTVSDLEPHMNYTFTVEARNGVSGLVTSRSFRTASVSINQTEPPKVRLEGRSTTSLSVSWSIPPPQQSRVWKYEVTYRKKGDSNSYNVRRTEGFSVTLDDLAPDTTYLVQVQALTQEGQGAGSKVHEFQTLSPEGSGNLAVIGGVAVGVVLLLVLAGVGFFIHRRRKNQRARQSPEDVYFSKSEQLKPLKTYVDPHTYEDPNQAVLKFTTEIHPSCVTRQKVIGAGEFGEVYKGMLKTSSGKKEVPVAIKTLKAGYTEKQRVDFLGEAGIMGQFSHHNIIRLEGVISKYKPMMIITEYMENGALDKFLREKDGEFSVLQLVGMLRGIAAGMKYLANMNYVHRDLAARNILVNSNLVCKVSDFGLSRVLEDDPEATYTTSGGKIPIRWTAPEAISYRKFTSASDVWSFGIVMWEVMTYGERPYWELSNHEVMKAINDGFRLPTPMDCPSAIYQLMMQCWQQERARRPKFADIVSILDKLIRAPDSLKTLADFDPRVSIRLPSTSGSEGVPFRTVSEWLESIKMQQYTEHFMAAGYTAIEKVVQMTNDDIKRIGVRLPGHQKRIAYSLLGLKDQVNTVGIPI

[3] = target: T2, Epithelial Cell Kinase (ECK) (Homo sapiens, UniProt P29317); test: biochemical
[4] = target: T2, Epithelial Cell Kinase (ECK); details: read-out: Eck IC50

CCOc1cc2ncc(C#N)c(Nc3cccc(Br)c3)c2cc1OCC [Example 47, 4-[(3-Bromophenyl)amino]-6,7-diethoxy-3-quinolinecarbonitrile]
Relative Tumor Growth ([1]; 40 mg/kg/dose IP days 1-10, day 7): 3.22
Relative Tumor Growth ([1]; 40 mg/kg/dose IP days 1-10, day 14): 6.75
Relative Tumor Growth ([1]; 40 mg/kg/dose IP days 1-10, day 21): 13.38
Relative Tumor Growth ([1]; 40 mg/kg/dose IP days 1-10, day 28): 18.59
Relative Tumor Growth ([1]; 50 mg/kg/dose IP days 1-10, day 7): 2.05
Relative Tumor Growth ([1]; 50 mg/kg/dose IP days 1-10, day 14): 5.04
Relative Tumor Growth ([1]; 50 mg/kg/dose IP days 1-10, day 21): 10.02
Relative Tumor Growth ([1]; 50 mg/kg/dose IP days 1-10, day 28): 14.01
Relative Tumor Growth ([1]; 100 mg/kg/dose IP days 1-10, day 7): 1.57
Relative Tumor Growth ([1]; 100 mg/kg/dose IP days 1-10, day 14): 3.36
Relative Tumor Growth ([1]; 100 mg/kg/dose IP days 1-10, day 21): 5.90
Relative Tumor Growth ([1]; 100 mg/kg/dose IP days 1-10, day 28): 5.85

COc1cc2ncc(C#N)c(Nc3cccc([N+](=O)[O-])c3)c2cc1OC [Example 89, 6,7-Dimethoxy-4-(3-nitrophenylamino)quinoline-3-carbonitrile]
IC50 [2]: 0.1 µM

CC#CC(=O)Nc1ccc2ncc(C#N)c(Nc3cccc(C)c3)c2c1 [Example 132, N-{3-Cyano-[(3-methylphenyl)amino]-6-quinolinyl}-2-butynamide]
IC50 [3]: > 58.8 µM

COc1cc2ncc(C#N)c(Nc3ccc(F)c(Br)c3)c2cc1NC(=O)C=CCN(C)C [Example 208, 4-Dimethylamino-but-2-enoic acid [4-(3-bromo-4-fluoro-phenylamino)-3-cyano-7-methoxy-quinolin-6-yl]-amide]
Relative Tumor Growth ([1]; Table 11, 80 IP days 1, 5, 9, day 7): 0.82
Relative Tumor Growth ([1]; Table 11, 80 IP days 1, 5, 9, day 14): 2.29
Relative Tumor Growth ([1]; Table 11, 80 IP days 1, 5, 9, day 21): 4.80
Relative Tumor Growth ([1]; Table 11, 80 IP days 1, 5, 9, day 28): 8.09
Relative Tumor Growth ([1]; Table 11, 80 PO days 1-10, day 7): 0.40
Relative Tumor Growth ([1]; Table 11, 80 PO days 1-10, day 14): 0.99
Relative Tumor Growth ([1]; Table 11, 80 PO days 1-10, day 21): 1.46
Relative Tumor Growth ([1]; Table 11, 80 PO days 1-10, day 28): 2.63
tumor growth inhibition relative to animals that did not receive any drug ([1]; Table 11 summary): significantly inhibited tumor growth

COc1ccc(OC)c2c(Nc3ccc(Cl)cc3F)c(C#N)cnc12 [Example 238, 4-(4-Chloro-2-fluoro-phenylamino)-5.8-dimethoxyquinoline-3-carbonitrile]
IC50 [4]: > 30.3 µM
